By UniProt entry, the sequences of proteins in these tests, tags left out.
UniProt P23977, whole entry: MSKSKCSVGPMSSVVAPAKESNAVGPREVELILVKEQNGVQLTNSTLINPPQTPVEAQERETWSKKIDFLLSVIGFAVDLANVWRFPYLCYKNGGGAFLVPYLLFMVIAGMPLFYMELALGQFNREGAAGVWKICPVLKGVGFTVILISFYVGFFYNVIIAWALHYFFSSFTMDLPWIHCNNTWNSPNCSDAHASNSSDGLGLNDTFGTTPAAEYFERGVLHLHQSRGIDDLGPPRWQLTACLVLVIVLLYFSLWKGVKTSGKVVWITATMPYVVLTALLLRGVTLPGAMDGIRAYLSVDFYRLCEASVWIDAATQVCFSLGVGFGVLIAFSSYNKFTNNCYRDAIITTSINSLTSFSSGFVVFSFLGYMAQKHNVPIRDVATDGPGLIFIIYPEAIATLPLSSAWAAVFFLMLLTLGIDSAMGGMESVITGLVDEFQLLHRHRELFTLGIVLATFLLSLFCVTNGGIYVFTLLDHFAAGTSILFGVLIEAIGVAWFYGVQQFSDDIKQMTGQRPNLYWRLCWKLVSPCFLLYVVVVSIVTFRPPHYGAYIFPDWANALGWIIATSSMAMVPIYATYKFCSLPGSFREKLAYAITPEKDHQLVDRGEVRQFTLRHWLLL

In BindingDB's records for doi:10.1124/jpet.105.096792 (University of Tours, 2006):

Molecular target: Sodium-dependent dopamine transporter (Rattus norvegicus, UniProt P23977)

Fc1ccc(C2CCNCC2COc2ccc3c(c2)OCO3)cc1 (stereo unspecified) [NSC_43815]
Ki: 1000 nM
